According to US20250214964A1 (published 2025):

What was measured:
[1] = test system: promastigote forms of L. donovani (MHOM/ET/67/HU3); test: L. donovani promastigotes, MTT method; assay type: cell-based
[2] = test system: intracellular amastigotes of L. donovani (strain MHOM/ET/67/HU3); test: L. donovani intracellular amastigotes in THP-1-derived macrophages, resazurin method; assay type: cell-based

Compound: N=C(Nc1ccc(CCc2ccc(NC(=N)c3ccccn3)cc2)cc1)c1ccccn1 [Compound 17, N,N″-(ethane-1,2-diylbis(4,1-phenylene))dipicolinimidamide]
- activity on promastigote forms of L. donovani, range in words [1]: micromolar to submicromolar range
- activity on intracellular amastigote forms of L. donovani, range in words [2]: micromolar to submicromolar range
